This is an account of results in ChEMBL document CHEMBL1124049, “Synthesis and biological characterization of pyridohomotropanes. Structure-activity relationships of conformationally restricted nicotinoids” (J Med Chem, 1988).

Sequences of proteins named here, by UniProt entry; tags and fusion partners are left off. A change or cut given only in a name is not applied to a line headed by its entry. Residues count along the entry.
UniProt P02712, 25-493 limits assumed: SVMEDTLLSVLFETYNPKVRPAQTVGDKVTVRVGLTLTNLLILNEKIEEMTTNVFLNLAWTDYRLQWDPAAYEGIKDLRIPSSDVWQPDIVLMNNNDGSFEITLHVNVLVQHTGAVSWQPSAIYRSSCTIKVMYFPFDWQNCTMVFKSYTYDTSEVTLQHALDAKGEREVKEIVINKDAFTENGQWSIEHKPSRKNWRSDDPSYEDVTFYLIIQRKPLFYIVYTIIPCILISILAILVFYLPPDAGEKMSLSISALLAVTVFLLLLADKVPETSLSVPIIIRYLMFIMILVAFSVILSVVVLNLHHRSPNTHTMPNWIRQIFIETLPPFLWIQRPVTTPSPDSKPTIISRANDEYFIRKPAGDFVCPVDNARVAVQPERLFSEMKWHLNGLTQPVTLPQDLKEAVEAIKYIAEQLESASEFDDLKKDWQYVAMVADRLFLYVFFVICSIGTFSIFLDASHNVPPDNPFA
UniProt P02718, 22-522 limits assumed: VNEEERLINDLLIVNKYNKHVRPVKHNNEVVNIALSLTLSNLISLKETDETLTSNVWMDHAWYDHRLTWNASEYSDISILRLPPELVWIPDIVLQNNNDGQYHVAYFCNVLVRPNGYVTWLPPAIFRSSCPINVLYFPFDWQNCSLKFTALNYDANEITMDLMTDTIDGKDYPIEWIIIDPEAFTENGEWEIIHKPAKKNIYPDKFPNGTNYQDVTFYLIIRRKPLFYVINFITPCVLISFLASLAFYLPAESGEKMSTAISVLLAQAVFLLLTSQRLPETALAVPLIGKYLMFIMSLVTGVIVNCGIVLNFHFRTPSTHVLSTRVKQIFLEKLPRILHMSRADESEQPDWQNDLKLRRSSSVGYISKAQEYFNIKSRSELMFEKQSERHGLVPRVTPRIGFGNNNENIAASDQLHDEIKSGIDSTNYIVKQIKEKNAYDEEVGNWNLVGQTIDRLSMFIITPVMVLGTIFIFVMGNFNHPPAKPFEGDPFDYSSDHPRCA
UniProt P02714, 18-506 limits assumed: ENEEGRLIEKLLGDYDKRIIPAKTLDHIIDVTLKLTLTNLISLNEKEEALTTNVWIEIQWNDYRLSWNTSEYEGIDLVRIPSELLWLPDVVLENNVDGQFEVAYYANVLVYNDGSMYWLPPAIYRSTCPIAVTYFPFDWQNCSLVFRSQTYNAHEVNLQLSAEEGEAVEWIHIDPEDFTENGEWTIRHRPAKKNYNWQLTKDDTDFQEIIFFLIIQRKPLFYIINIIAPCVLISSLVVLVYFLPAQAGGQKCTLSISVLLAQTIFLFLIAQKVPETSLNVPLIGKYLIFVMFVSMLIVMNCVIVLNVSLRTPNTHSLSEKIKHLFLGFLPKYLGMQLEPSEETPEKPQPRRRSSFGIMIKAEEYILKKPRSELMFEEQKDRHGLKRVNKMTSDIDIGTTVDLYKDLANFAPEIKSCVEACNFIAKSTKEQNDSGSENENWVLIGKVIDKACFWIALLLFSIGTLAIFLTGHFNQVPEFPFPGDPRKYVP
UniProt P04757: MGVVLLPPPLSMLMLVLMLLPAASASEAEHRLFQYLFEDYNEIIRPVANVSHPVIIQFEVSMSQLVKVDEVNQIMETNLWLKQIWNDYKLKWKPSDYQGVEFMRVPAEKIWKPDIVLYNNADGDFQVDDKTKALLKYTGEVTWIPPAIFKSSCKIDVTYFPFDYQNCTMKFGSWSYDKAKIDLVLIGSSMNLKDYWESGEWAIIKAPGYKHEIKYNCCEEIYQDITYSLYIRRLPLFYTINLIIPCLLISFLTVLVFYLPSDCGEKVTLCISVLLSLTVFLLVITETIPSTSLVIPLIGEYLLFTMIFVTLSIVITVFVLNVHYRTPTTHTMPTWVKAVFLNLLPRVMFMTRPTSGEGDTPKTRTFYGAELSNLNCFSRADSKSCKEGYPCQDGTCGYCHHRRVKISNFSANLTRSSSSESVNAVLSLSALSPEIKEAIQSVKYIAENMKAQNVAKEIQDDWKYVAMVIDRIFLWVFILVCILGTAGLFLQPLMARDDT
UniProt P09483: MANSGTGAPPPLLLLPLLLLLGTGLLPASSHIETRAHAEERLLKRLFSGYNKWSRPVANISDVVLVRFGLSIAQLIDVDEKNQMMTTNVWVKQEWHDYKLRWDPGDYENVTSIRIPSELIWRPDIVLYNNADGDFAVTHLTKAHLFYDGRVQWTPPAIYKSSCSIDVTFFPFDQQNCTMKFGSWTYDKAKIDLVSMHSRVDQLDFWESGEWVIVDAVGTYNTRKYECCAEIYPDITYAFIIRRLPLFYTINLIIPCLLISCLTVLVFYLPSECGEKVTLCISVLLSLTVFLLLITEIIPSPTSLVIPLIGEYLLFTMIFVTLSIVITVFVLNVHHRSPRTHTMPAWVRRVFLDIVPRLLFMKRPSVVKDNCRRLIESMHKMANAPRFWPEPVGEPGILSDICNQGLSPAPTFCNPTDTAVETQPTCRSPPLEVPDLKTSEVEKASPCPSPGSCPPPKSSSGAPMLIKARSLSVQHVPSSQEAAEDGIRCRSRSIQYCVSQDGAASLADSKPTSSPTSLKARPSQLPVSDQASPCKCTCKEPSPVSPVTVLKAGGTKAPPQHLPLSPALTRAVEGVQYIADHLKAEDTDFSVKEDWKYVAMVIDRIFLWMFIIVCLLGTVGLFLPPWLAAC
UniProt P12389: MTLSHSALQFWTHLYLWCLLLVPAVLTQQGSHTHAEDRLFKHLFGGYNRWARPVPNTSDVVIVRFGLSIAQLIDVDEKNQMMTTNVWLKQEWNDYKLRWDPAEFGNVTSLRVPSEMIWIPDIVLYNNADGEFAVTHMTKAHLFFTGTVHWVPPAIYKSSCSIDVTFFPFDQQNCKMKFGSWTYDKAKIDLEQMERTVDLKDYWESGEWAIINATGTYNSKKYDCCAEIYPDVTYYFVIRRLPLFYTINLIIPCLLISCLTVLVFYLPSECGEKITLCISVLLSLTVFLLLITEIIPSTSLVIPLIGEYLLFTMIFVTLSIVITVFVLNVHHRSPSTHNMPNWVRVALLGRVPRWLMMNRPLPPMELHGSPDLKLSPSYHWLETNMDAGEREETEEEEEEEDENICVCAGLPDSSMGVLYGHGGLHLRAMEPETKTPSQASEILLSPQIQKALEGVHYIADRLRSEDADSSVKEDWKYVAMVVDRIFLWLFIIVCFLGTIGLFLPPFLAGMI
UniProt P12390: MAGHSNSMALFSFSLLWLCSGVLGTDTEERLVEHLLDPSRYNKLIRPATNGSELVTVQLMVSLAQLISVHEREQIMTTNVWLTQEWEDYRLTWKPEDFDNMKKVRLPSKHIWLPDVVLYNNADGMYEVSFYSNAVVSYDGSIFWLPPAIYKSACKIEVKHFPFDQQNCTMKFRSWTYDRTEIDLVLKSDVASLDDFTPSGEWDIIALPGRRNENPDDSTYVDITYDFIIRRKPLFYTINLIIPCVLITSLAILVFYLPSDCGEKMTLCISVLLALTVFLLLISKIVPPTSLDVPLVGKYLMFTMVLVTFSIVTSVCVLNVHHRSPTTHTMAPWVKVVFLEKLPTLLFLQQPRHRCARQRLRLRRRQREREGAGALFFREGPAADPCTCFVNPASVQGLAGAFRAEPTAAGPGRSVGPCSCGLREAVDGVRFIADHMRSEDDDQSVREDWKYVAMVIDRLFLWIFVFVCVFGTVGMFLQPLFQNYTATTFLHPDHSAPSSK
UniProt P12391: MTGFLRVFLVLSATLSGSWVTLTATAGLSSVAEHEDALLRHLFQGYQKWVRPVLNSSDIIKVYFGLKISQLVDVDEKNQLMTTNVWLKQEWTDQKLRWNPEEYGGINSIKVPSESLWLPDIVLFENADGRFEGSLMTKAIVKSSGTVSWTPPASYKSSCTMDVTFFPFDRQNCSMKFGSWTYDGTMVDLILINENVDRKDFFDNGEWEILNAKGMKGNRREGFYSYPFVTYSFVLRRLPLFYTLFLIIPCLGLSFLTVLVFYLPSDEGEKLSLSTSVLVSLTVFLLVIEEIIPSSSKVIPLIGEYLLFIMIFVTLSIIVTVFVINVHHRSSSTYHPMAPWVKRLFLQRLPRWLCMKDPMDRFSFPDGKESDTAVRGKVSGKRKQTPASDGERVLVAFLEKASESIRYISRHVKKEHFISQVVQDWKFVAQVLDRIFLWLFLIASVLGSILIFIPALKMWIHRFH
UniProt P12392: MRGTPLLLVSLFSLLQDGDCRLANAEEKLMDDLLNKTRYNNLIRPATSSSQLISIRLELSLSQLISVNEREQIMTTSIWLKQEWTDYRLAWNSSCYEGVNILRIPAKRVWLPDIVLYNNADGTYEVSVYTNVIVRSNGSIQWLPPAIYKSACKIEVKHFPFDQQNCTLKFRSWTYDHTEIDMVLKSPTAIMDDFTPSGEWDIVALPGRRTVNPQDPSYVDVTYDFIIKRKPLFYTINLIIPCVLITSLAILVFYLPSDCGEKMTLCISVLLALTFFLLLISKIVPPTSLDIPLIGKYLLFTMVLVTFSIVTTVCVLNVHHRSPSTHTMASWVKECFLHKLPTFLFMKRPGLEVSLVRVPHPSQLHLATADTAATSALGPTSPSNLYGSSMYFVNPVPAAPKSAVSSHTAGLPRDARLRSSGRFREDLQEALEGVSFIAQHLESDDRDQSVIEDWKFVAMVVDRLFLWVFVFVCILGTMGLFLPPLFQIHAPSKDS
UniProt P20420: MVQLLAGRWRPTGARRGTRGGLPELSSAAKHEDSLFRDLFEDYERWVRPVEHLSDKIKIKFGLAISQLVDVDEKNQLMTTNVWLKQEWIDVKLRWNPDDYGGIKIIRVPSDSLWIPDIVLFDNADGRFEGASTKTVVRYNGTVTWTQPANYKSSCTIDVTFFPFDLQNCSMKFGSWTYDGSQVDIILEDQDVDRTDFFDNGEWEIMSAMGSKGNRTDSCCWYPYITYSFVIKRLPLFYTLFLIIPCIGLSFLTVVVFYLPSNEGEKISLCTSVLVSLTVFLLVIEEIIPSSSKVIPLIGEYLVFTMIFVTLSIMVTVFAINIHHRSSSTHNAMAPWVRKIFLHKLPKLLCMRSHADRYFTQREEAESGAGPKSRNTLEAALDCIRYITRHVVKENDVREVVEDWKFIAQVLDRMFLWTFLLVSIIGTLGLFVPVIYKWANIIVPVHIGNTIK
UniProt P43143: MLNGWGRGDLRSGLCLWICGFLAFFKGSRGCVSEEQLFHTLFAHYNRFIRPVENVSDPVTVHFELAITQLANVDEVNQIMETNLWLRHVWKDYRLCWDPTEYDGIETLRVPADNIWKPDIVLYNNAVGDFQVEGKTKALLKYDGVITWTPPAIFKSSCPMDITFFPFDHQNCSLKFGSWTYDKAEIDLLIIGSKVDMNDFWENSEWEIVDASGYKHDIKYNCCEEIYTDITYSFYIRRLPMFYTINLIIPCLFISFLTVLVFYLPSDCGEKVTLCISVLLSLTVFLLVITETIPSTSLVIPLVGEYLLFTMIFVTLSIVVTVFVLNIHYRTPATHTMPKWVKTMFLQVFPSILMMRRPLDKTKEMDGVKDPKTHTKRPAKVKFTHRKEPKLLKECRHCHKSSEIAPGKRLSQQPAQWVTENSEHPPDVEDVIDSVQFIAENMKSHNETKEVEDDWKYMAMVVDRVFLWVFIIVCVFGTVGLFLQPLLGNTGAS
UniProt P43144: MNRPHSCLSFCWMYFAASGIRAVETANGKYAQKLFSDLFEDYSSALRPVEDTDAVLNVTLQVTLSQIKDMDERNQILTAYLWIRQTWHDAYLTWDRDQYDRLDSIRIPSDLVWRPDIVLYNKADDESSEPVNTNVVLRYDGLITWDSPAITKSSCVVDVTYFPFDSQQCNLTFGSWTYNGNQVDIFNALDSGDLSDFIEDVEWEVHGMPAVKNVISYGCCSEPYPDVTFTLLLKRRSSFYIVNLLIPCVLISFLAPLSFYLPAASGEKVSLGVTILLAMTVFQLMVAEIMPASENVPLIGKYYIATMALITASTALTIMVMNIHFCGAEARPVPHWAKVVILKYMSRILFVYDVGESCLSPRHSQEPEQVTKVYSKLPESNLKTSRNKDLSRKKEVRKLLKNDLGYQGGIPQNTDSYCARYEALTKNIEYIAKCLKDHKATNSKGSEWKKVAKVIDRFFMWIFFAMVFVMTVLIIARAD
UniProt Q05941: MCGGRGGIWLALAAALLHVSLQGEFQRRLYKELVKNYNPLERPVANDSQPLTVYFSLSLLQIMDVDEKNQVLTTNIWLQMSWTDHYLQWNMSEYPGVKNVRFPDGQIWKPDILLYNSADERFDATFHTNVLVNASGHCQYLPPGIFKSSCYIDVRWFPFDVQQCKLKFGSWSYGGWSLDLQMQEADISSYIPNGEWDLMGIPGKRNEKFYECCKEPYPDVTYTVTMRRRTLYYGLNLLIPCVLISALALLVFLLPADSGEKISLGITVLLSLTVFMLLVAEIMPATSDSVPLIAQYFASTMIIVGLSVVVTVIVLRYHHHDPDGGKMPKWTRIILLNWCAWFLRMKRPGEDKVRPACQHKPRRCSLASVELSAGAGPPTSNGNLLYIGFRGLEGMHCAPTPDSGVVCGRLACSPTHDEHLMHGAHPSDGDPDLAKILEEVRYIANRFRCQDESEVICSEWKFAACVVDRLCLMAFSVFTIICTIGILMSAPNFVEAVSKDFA

The target in one assay is Acetylcholine receptor (Torpedo californica, UniProt P02710+P02712+P02718+P02714). The experiment in a line: Inhibition of [3H]MCC binding to torpedo electroplax membranes. The method, boiled down:
(§1)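 Membranes from whole rat brain or Torpedo electric organ, homogenized in 30 volumes 0.05 M NaH2PO4 pH 7.0 and spun at 50000g for 30 min. Each tube held 2 mg brain protein or 1 mg electric organ protein, 1 × 10⁻⁹ M radioligand (final), and varied agent concentrations in 0.05 M NaPO4 pH 7.0.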

For assay [1], the target named is Neuronal acetylcholine receptor (UniProt P04757+P09483+P12389+P12390+P12391+P12392+P20420+P43143+P43144+Q05941+Q9JLB5). The experiment in a line: Inhibition of [3H]MCC binding to rat brain membranes. The assay is classed as cell membranes, Membrane. The method, boiled down:
as §1

Each structure is given as a SMILES string.

Regarding `CC(=O)C1=CCCC2CCC1N2` (configuration not stated), the IC50 was 0.1 nM at Acetylcholine receptor and 10 nM in assay [1].
